{"source": "the NIST ThermoML archive (doi:10.1016/j.jct.2016.09.025)", "key": {"[1]": {"assay": "Molar enthalpy of transition or fusion", "conditions": "Crystal; DSC"}, "[2]": {"conditions": "Crystal; DTA"}}, "note": "Numbers after ± are expanded uncertainties."}
{"smiles": "O=C1CCC(=O)O1", "note": "[succinic anhydride]", "values": [{"measurement": "Molar enthalpy of transition or fusion", "setting": "[1]", "value": "4.19 ± 0.311", "unit": "kcal/mol"}, {"measurement": "Normal melting temperature", "setting": "[2]", "value": "120.02 ± 0.61", "unit": "°C"}]}
